Laboratory results reported in ChEMBL document CHEMBL3639096, “Bivalent inhibitors of IAP proteins and therapeutic methods using the same” (2014).

Amino acid sequences for entries named in this document (tags omitted).
UniProt P98170, whole entry: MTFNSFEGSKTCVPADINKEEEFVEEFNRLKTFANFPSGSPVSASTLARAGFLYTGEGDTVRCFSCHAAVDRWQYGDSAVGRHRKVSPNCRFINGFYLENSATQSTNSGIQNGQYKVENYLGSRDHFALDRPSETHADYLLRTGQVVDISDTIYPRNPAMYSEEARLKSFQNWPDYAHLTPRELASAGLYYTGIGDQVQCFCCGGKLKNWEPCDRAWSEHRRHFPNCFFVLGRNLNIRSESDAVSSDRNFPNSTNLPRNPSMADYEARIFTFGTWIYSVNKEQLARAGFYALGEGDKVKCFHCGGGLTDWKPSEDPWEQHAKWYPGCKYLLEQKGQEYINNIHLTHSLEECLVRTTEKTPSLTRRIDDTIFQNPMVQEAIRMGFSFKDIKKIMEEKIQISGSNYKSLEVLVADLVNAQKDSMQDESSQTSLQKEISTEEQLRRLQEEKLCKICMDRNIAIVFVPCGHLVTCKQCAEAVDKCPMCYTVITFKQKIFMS

Tests used:
Experiment in all cases: Fluorescence Polarization (FP) Based Competitive Assay: Binding affinities of the present compounds to XIAP linker-BIR2-BIR3 (residues 120-356), cIAP1-BIR3 (residues 253-363), and cIAP-2 BIR3 (residues 238-349) proteins were determined by fluorescence polarization (FP) based competitive assays. For cIAP-1 BIR3 and cIAP-2 BIR3 assays, a fluorescently labeled Smac mimetic (Smac-2F) was used as the …
[1] = molecular target: Baculoviral IAP repeat-containing protein 3 (Homo sapiens, UniProt Q13489)
[2] = molecular target: E3 ubiquitin-protein ligase XIAP (Homo sapiens, UniProt P98170)
[3] = molecular target: Baculoviral IAP repeat-containing protein 2 (Homo sapiens, UniProt Q13490)

Question: `CN[C@@H](C)C(=O)N[C@H]1CN(C(=S)Nc2ccc(NC(=S)N3CC[C@H]4CC[C@@H](C(=O)NC(c5ccccc5)c5ccccc5)N4C(=O)[C@@H](NC(=O)[C@H](C)NC)C3)cc2)CC[C@H]2CCC(C(=O)NC(c3ccccc3)c3ccccc3)N2C1=O` (stereo partly drawn) was tested. Which IC50 [1] did it give?
Answer: < 300 nM

Question: And the IC50 [2]?
Answer: < 30 nM

Question: And the IC50 [3]?
Answer: < 300 nM
